Results as given in ChEMBL document CHEMBL4834393, “Building a Chemical Toolbox for Human Pregnane X Receptor Research: Discovery of Agonists, Inverse Agonists, and Antagonists Among Analogs Based on the Unique Chemical Scaffold of SPA70” (J Med Chem, 2021).
Active and inactive are the calls of the source. The rule behind the calls is not given here.

Columns and labels:
Type in all cases: cell-based
[1] = target: T1, Vitamin D3 receptor (Homo sapiens) (UniProt P11473); experiment: Antagonist activity at human VDR expressed in HEK293T cells in presence of 1alpha,25-dihydroxyvitamin D3 by luciferase reporter assay
T1 sequence (whole entry): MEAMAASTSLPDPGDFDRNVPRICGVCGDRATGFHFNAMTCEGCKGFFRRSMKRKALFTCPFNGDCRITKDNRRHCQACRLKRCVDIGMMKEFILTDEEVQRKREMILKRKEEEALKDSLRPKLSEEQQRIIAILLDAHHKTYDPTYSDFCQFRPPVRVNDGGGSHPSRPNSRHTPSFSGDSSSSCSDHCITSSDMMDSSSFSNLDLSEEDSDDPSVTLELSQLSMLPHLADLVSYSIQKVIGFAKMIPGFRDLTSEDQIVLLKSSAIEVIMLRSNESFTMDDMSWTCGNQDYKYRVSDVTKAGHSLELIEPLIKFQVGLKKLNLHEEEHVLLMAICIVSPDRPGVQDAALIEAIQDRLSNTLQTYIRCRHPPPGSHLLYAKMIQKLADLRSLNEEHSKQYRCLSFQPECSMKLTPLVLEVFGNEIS

[2] = target: T2, Bile acid receptor (Homo sapiens) (UniProt Q96RI1); experiment: Antagonist activity at human FXR expressed in HEK293T cells in presence of GW4064 by luciferase reporter assay
T2 sequence (whole entry): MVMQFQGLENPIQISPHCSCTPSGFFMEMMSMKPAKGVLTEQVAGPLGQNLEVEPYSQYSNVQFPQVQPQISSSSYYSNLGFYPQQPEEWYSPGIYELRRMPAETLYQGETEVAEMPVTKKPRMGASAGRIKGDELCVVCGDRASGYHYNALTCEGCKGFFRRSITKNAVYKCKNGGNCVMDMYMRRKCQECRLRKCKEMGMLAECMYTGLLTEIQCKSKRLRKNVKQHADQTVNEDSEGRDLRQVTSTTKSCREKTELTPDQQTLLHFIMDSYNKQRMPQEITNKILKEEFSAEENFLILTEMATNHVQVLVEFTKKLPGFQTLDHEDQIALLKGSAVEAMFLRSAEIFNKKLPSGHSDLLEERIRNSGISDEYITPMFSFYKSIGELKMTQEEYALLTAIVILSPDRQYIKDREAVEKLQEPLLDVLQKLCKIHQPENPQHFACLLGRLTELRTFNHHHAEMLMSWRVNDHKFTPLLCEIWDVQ

[3] = target: T1, Vitamin D3 receptor (Homo sapiens); experiment: Agonist activity at human VDR expressed in HEK293T cells by luciferase reporter assay
[4] = target: T2, Bile acid receptor (Homo sapiens); experiment: Agonist activity at human FXR expressed in HEK293T cells by luciferase reporter assay

Activity [1]: inactive
Activity [2]: inactive
Activity [3]: inactive
Activity [4]: inactive
Compound: CCc1c(S(=O)(=O)c2ccc(C(C)(C)C)cc2)nnn1-c1cc(OC)ccc1OC
